Amino acid sequences for entries named in this document (tags omitted).
UniProt P10275, whole entry T878A: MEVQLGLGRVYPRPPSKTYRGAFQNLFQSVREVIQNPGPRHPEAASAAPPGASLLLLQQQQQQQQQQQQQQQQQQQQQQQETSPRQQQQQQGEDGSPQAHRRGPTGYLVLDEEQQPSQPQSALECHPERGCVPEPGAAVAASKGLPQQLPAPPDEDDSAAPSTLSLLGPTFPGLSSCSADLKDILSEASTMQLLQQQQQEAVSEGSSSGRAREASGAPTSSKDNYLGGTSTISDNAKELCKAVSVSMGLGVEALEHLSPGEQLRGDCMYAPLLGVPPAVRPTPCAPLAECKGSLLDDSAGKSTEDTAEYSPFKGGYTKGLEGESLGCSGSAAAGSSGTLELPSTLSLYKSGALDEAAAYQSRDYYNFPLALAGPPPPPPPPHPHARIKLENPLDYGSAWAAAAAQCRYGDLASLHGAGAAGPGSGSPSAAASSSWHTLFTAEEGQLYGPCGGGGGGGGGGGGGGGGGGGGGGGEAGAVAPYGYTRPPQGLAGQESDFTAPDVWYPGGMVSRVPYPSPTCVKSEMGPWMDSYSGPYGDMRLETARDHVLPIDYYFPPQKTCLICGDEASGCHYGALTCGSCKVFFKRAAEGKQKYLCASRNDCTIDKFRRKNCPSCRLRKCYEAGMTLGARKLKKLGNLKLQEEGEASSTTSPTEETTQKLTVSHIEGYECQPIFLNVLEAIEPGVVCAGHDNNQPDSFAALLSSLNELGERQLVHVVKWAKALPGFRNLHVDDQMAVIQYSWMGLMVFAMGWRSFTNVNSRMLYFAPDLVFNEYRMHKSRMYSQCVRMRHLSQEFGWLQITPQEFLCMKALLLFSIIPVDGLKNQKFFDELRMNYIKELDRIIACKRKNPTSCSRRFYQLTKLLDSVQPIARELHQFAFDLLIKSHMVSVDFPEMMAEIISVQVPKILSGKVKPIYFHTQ

In patent US11059795B2, “Androgen receptor modulators and methods for their use” (ESSA Pharma, Inc., priority 2018, dated 2021):

Columns and labels:
[1] = target: androgen receptor (AR) (Homo sapiens, UniProt P10275, T878A); assay: Androgen-induced PSA (6.1 kb)-luciferase reporter assay in LNCaP cells; format: cell-based; settings: read-out: PSA-Luc IC50 Range; LNCaP cells transfected with PSA (6.1 kb)-luciferase reporter, R1881 1 nM, 24 h
[2] = Microsomal stability assay, human liver microsomes; settings: 1 μM compound, 0.5 mg/mL protein, 37° C.
[3] = Microsomal stability assay, mouse liver microsomes; settings: 1 μM compound, 0.5 mg/mL protein, 37° C.
[4] = Hepatocyte stability assay, mouse hepatocytes; settings: 1 μM compound, 0.5 million cells/mL, 37° C.

**Q.** Which IC50 [1] does the source give for `CC(C)(c1ccc(OCc2ccnc(NS(C)(=O)=O)n2)cc1)c1cc(F)c(OCCCl)c(F)c1` here?
**A.** The IC50 was 0.5 to 2 µM.

**Q.** And the “HLM +/− NADPH: Clint (μL/min/mg protein)” value [2]?
**A.** The value was “*** (*** represent Cl < 12 μL/min/mg protein)”.

**Q.** What about the “MLM +30/− NADPH: Clint (μL/min/mg protein)” value [3] of the same molecule?
**A.** The value was “*** (*** represent Cl < 12 μL/min/mg protein)”.

**Q.** And the “MH +/− NADPH: Clint (μL/min/million cells)” value [4]?
**A.** The value was “*** (*** represent Cl < 4 cells μL/min/million cells)”.
